## AlphaSeq binding of Ab-14 heavy chain variants to a spike HR2 peptide

All variants were tested on one target, the spike HR2 peptide PDVDLGDISGINAS (SARS-CoV-2).

The variants keep the light chain, the linker and the frameworks of Ab-14 (scFv order VH, a 15-residue (Gly4Ser)3 linker, VL).
VH: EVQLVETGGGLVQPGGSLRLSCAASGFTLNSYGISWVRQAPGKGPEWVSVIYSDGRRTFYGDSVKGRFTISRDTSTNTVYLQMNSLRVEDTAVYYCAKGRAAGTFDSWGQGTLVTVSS
VL: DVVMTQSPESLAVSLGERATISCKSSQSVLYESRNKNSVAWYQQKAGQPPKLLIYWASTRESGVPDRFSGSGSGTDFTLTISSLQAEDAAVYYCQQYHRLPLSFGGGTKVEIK

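The parent was found by panning a naive human phage display library on the peptide. This is the validation round: designs drawn from the data on random variants, tested in the same kind of assay. Their group label is 14H_Ctrl (Ctrl: baseline library sampled from a position-specific scoring matrix, with some repeated check sequences). The scFvs were displayed on barcoded MATa yeast, the peptide on MATalpha yeast. Pairs that bind mate more often; barcode pairs of the diploids are counted by sequencing. Each replicate has its own calibration line, from reference interactions of the BCL2 family. The assay was run in six technical replicates.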

The whole VH of each variant is written out. Scale: log10 of Kd in nM, estimated from mating counts; low values are strong binders. A mean of the replicates is given; it leaves out those without a signal. An entry "nd" has no value in the source: the pair was not observed among the diploids in that replicate. This suggests poor binding but is not conclusive. The authors' rule: three or more of the six replicates give a measured affinity, fewer mean a poor binder. The parent sequence was in this pool as ten entries: three were never detected, three once, and four in most replicates, with averages from 0.34 to 2.37. A sequence measured in both rounds can read differently, since the two assays cover different ranges. Three control strains display no target. For all heavy chain designs, 1% of the pairings with them gave a signal, with a median of 2.08 and one signal in twenty below 0.84, so weak values seen in few replicates may be background. Also given: how often the same scFv was detected with the empty control strains.

VH	log10 Kd, replicates	log10 Kd (nM), mean	control signals
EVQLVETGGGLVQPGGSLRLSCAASGFTLNSYGISWVRQAPGKGPEWVSVIYSDGRRVFYGDAVKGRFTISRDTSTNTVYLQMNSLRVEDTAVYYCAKGRAAGTFDSWGQGTLVTVSS	1.69 / nd / 2.22 / 1.06 / 1.83 / 1.80	1.72	0 of 18
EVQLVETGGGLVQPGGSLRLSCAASGRTLDSYGISWVRQAPGKGPEWVSVIYSDGRRTFYGDSVKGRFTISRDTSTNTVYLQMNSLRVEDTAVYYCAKWRAAGTFDLWGQGTLVTVSS	nd / nd / nd / nd / nd / nd	nd	0 of 18
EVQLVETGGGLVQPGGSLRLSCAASGFTLNSYGISWVRQAPGKGPEWVSVIYSDGRRTFYGDSVKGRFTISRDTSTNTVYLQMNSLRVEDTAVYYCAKGRAAGCFCSWGQGTLVTVSS	nd / nd / nd / nd / nd / nd	nd	0 of 18
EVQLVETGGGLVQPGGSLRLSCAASGETLNSYGISWVRQAPGKGPEWVSVIYSDGRRTFYGDSVKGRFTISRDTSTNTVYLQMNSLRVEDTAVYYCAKGRAPGTFDSWGQGTLVTVSS	nd / nd / nd / nd / nd / nd	nd	0 of 18
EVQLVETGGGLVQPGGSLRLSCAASGFNLNSYGISWVRQAPGKGPEWVSVIYSDGRRTFYGDSVKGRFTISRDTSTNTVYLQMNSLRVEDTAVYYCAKGREAGTFDQWGQGTLVTVSS	-0.25 / 0.16 / 0.13 / 0.12 / -0.24 / -0.19	-0.05	0 of 18
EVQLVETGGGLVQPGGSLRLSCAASGFTLTQYGISWVRQAPGKGPEWVSVIYADGRRTFYGDSVKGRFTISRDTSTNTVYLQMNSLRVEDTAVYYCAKGYAAGTFNSWGQGTLVTVSS	nd / nd / -0.09 / nd / nd / nd	-0.09	0 of 18
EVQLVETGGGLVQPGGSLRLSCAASGRTLSEYGISWVRQAPGKGPEWVSVIYSDGRRTFYGDSVKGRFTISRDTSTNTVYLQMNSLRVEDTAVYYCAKARAALTFDSWGQGTLVTVSS	nd / nd / nd / nd / nd / nd	nd	0 of 18
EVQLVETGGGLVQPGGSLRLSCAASGFTLNSYGISWVRQAPGKGPEWVSVIYADGRRTFYNDSVKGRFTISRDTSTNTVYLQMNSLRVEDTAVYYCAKGREAGTFDSWGQGTLVTVSS	0.86 / -0.05 / 0.43 / 0.02 / -0.05 / 0.69	0.31	0 of 18
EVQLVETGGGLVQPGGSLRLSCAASGFEMNSYGISWVRQAPGKGPEWVSVDYADGRRTIYTDSVKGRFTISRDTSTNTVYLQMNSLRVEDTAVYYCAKGRAAGTFVSWGQGTLVTVSS	nd / nd / nd / nd / 2.22 / 2.47	2.34	0 of 18
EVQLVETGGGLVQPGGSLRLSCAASGFTLNSYGKSWVRQAPGKGPEWVSVIYSDGLRTFYGDSVKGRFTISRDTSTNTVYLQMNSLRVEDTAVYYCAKGRNAGTFDSWGQGTLVTVSS	nd / nd / nd / nd / nd / nd	nd	0 of 18
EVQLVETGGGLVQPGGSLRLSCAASGFTLNSYGISWVRQAPGKGPEWVSVIYSDGRRTQYGDSVKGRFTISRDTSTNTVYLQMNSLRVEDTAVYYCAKGSNAGTFDSWGQGTLVTVSS	nd / 2.52 / nd / nd / 1.26 / nd	1.89	0 of 18
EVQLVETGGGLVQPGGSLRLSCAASGNTLNSYGISWVRQAPGKGPEWVSVIYSDGRRTFYGDSVKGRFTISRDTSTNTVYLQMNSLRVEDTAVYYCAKGTAAGTFLSWGQGTLVTVSS	nd / nd / nd / nd / nd / nd	nd	0 of 18
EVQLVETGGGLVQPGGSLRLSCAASGFMLNQYGISWVRQAPGKGPEWVSVIYSDGIRTFYGDSVKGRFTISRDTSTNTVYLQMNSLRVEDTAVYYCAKGRAAGTFDSWGQGTLVTVSS	2.54 / 2.00 / 1.05 / 1.19 / 1.79 / nd	1.71	0 of 18
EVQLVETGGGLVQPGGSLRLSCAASGFTLNSYGISWVRQAPGKGPEWVSSIYSDGRRTFYGDSVKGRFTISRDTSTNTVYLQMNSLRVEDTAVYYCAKGRWAGTFDSWGQGTLVTVSS	nd / nd / nd / 2.46 / nd / nd	2.46	0 of 18
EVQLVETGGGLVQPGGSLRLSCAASGNTLNSYGISWVRQAPGKGPEWVSVIYSDGRRTFYIDSVKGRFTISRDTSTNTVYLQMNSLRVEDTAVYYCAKGWLAGTFDQWGQGTLVTVSS	nd / nd / 1.31 / 1.89 / 2.29 / 0.46	1.49	0 of 18
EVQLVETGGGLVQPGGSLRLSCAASGFTLNSYGIHWVRQAPGKGPEWVSVIYADGRRTFYIDSVVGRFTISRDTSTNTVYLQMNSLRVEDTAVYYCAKGRAWGTFVSWGQGTLVTVSS	nd / nd / nd / nd / nd / nd	nd	0 of 18
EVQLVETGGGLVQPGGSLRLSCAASGFTLNDYGISWVRQAPGKGPEWVSVIYSDGRRTQYGDSVKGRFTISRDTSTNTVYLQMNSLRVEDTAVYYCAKGRAAGTFDSWGQGTLVTVSS	0.55 / 0.21 / 1.60 / 0.31 / 0.46 / nd	0.62	0 of 18
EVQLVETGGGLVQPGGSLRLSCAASGFTLNSYGISWVRQAPGKGPEWVSVMYSDGRRTFYGDSVKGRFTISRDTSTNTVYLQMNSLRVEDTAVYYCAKGRAAGTFDSWGQGTLVTVSS	nd / nd / nd / nd / nd / 0.99	0.99	0 of 18
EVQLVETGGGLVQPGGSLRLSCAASGFTLNQYGISWVRQAPGKGPEWVSVIYSDGRRTFYSPSVKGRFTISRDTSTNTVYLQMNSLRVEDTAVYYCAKGRAQGTFDSWGQGTLVTVSS	nd / nd / nd / nd / nd / nd	nd	0 of 18
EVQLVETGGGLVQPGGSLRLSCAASGFVLNSYGISWVRQAPGKGPEWVSVIYSDGRRTFYGDSVKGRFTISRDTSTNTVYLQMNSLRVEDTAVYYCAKGRAAGTFSSWGQGTLVTVSS	nd / nd / nd / nd / nd / nd	nd	0 of 18

The last 2 entries again:

VH	log10 Kd, replicates	log10 Kd (nM), mean	control signals
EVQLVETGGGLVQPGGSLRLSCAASGFTLNQYGISWVRQAPGKGPEWVSVIYSDGRRTFYSPSVKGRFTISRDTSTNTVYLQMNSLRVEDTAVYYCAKGRAQGTFDSWGQGTLVTVSS	nd / nd / nd / nd / nd / nd	nd	0 of 18
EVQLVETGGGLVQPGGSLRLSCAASGFVLNSYGISWVRQAPGKGPEWVSVIYSDGRRTFYGDSVKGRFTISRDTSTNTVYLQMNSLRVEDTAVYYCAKGRAAGTFSSWGQGTLVTVSS	nd / nd / nd / nd / nd / nd	nd	0 of 18

The measurements come from Li et al. 2023 (doi:10.1038/s41467-023-39022-2) through the FLAb antibody collection.